The results in this text go back to ChEMBL document CHEMBL1155233, “Structure mechanism insights and the role of nitric oxide donation guide the development of oxadiazole-2-oxides as therapeutic agents against schistosomiasis” (J Med Chem, 2009).

The assay has as its system Schistosoma mansoni. As to the kind of experiment: Antischistosomal activity against Schistosoma mansoni assessed as induction of parasite mortality after 8 hrs. Type of assay: functional. Also on record: concentration or dose not given beside the values.

For `COc1ccccc1-c1no[n+]([O-])c1C#N`, the Activity amounted to 4%.
